Blank lines part the entries; values can stand above or below the binder they belong to.
Target: human Nectin 3 on CHO cells (human, UniProt Q9NQS3 58-549)
Assay: flow cytometry on CHO cells expressing human Nectin 3
Experimental: Anti-Nectin-4 antibodies were tested by flow cytometry for binding to different CHO cell lines made to express respectively the human Nectin 1, Nectin 2, Nectin 3 and PVR proteins. The expression of each cell lines was controlled and validated with known respectively the anti-human Nectin1, anti-human Nectin2, anti-human Nectin3 and anti-human PVR antibodies. The mature amino acid sequence of the proteins expressed by the cells were as follows:
Nectin 1, Nectin 2, Nectin 3 and PVR proteins as in Example 12. […] Epitope mapping was carried out by assessing competition for binding to Nectin-4 by SPR as in Example 14.

By UniProt entry, the sequences of proteins in these tests, tags left out. Residues count along the entry.
UniProt Q9NQS3, 58-549 limits assumed: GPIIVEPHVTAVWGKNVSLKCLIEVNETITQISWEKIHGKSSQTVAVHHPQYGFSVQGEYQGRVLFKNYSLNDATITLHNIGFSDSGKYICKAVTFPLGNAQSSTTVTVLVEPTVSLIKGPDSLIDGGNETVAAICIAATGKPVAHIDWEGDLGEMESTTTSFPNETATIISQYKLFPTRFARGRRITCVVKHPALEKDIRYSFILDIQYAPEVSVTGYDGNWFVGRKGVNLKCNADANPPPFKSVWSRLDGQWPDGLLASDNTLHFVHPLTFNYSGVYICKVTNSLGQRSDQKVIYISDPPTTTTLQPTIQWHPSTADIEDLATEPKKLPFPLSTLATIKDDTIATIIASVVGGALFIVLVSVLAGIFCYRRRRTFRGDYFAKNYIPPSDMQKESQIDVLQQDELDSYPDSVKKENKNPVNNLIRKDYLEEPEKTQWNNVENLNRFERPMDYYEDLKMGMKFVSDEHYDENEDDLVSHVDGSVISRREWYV

- binding result: no binding
B1: antibody 6C11B (antibody, human IgG1, V domains shown)
VH: EVQLQQSGPELVKPGASVKISCKTSGYTFTEYTIHWVKQNHGKSLEWIGRINPKNGDIIHNQNFMGKATLTVDKSSSTAYMELRSLTSEDSAVCYCARSGYGSSYGFAYWGQGTLVTVSA
VL: DIVMTQSPTSLVVSLGQRATISCRASQSVTTPRYSYMHWYQQKPGQPPKLLIKYASNLESGVPARFSGSGSGTDFTLNIHPVEEEDTATYYCQHSWEIPYTFGGGTKLEIK
notes: also called 6CB11; CHG1-M-4N4-6C11B

- binding result: no binding
B2: antibody 6A7 (antibody, human IgG1, V domains shown)
VH: QVQLKESGAELVKPGASVKLSCKASGYTFTSYWMHWVKQRPGHGLEWVGEIDPSDSYTNYNQKFKGKATLTIDKSSSTVYMQLSSLTSEDSAVYYCARSGNYDAMDYWGQGTSVTVSA
VL: DIVMTQAAFSSAVTLGTSASISCRSSKSLLHSNGITYLYWYLQKPGQSPHFLIYQMSNLASGVPDRFTSSGSGTDFTLRISRVEAEDVGVYYCAQNLELPWTFGGGTKLEIK
notes: also called CHG1-M-4N4-6A7
